Measurements reported in patent US8017630B2 (priority 2004, dated 2011).

Sequences of proteins named here, by UniProt entry; tags and fusion partners are left off. A change or cut given only in a name is not applied to a line headed by its entry.
UniProt P35372, whole entry, looked up: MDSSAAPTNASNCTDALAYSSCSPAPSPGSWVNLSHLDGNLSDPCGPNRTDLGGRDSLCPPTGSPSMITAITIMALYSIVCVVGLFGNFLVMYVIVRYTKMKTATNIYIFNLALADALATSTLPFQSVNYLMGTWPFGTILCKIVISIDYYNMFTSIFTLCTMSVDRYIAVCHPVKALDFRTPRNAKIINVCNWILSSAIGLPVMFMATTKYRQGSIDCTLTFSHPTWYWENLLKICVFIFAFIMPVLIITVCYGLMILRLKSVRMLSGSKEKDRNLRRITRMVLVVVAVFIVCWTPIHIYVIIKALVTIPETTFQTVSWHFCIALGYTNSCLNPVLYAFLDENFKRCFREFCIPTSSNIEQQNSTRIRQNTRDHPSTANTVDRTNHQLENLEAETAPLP
UniProt P41146: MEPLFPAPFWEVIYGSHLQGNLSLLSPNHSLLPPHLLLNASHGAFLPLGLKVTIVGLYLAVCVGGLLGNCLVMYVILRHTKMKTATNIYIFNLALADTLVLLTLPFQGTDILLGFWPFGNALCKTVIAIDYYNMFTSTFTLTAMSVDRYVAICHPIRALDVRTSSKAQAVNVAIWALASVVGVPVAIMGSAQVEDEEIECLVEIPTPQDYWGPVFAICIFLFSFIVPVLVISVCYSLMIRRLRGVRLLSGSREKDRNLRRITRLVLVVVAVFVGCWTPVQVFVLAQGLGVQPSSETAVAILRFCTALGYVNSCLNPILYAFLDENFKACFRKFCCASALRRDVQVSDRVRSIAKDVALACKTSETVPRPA

Legend:
human μ-opiate receptor = human μ-opiate receptor (Homo sapiens, UniProt P35372); assay: μ-opiate receptor binding assay with [3H]-naloxone; settings: for ORμNal % 1 μm: % inhibition of specific [3H]-naloxone binding at 1 μmol/l; for Ki: read-out: ORμNal Ki, Ki from IC50 by Cheng-Prusoff, [3H]-naloxone, CHO-K1 membranes
ORL1 receptor = ORL1 receptor (Homo sapiens, UniProt P41146); assay: ORL1 receptor binding assay with 3H-nociceptin/orphanin FQ; settings: % inhibition at c=1 μM; membranes from recombinant CHO-ORL1 cells
mice = assay: Tail flick test in mice (analgesia); settings: % of maximum possible antinociceptive effect; for TFMiv % [1 mg/kg]: 1 mg/kg intravenous; for TFMiv % (10 mg/kg): 10 mg/kg intravenous

## CN(C)C1(c2ccccc2)CCC(=CC(=O)NCCCc2ccccc2)CC1.Cl (stereo not shown)
Human μ-opiate receptor
  ORμNal % 1 μm: 101.00%
ORL1 receptor
  ORL1% 1 μM: 90.00%

## CN(C)C1(c2ccccc2)CCC(CC(=O)NCCCCCc2c[nH]c3ccccc23)CC1 (stereo not shown)
Human μ-opiate receptor
  Ki: 1.8 nM

## CN(C)C1(c2ccc(F)cc2)CCC(=CC(=O)NCCc2c[nH]c3ccccc23)CC1.Cl (stereo not shown)
Human μ-opiate receptor
  ORμNal % 1 μm: 81%
ORL1 receptor
  ORL1% 1 μM: 81%

## CN(C)C1(c2ccccn2)CCC(=CC(=O)NCCCc2ccccc2)CC1.Cl (stereo not shown)
Human μ-opiate receptor
  ORμNal % 1 μm: 83%
ORL1 receptor
  ORL1% 1 μM: 46%

## CN(C)C1(c2ccccc2)CCC(CC(=O)NCc2c[nH]c3ccccc23)CC1 (stereo not shown)
Human μ-opiate receptor
  Ki: 8.6 nM

## CN(C)C1(c2ccccc2)CCC(CC(=O)NCCCc2ccccc2)CC1 (stereo not shown)
Human μ-opiate receptor
  ORμNal % 1 μm: 96%
  Ki: 2.4 nM
ORL1 receptor
  ORL1% 1 μM: 97.00%

## CN(C)C1(c2cccc(F)c2)CCC(=CC(=O)NCCc2c[nH]c3ccccc23)CC1.Cl (stereo not shown)
mice
  TFMiv % [1 mg/kg]: 42%
Human μ-opiate receptor
  ORμNal % 1 μm: 97%
ORL1 receptor
  ORL1% 1 μM: 98%

## COC(=O)[C@H](Cc1c[nH]c2ccccc12)NC(=O)CC1CCC(c2ccccc2)(N(C)C)CC1 (stereo partly shown)
Human μ-opiate receptor
  Ki: 2.8 nM

## CN(C)C1(c2ccccc2)CCC(CC(=O)NCCCc2c[nH]c3ccccc23)CC1 (stereo not shown)
Human μ-opiate receptor
  Ki: 5.7 nM

## CN(C)C1(c2ccccc2)CCC(=CC(=O)NCCCc2ccccc2)CC1 (stereo not shown)
Human μ-opiate receptor
  Ki: 3.1 nM

## CN(C)C1(c2ccccc2)CCC(CC(=O)NCCCCc2c[nH]c3ccccc23)CC1 (stereo not shown)
Human μ-opiate receptor
  Ki: 1.3 nM

## CN(C)C1(c2ccccc2)CCC(=CC(=O)NCCc2ccc(F)cc2)CC1.Cl (stereo not shown)
Human μ-opiate receptor
  ORμNal % 1 μm: 105.00%
ORL1 receptor
  ORL1% 1 μM: 93.00%

## CC(Cc1c[nH]c2ccccc12)NC(=O)CC1CCC(c2cccc(F)c2)(N(C)C)CC1 (stereo not shown)
Human μ-opiate receptor
  Ki: 1.3 nM

## CN(C)C1(c2ccccc2)CCC(=CC(=O)NCc2ccccc2C(F)(F)F)CC1 (stereo not shown)
mice
  TFMiv % [1 mg/kg]: 99%
Human μ-opiate receptor
  ORμNal % 1 μm: 104.00%
  Ki: 2.8 nM
ORL1 receptor
  ORL1% 1 μM: 84.00%

## CN(C)C1(c2ccccc2)CCC(=CC(=O)NCCCCCCc2c[nH]c3ccccc23)CC1.Cl (stereo not shown)
Human μ-opiate receptor
  ORμNal % 1 μm: 102%
ORL1 receptor
  ORL1% 1 μM: 90%

## CN(C)C1(c2cccc(F)c2)CCC(=CC(=O)NCCCc2ccccc2)CC1.Cl (stereo not shown)
Human μ-opiate receptor
  ORμNal % 1 μm: 102%
ORL1 receptor
  ORL1% 1 μM: 96%

## CN(C)C1(c2ccc(F)cc2)CCC(=CC(=O)NCCCc2ccccc2)CC1 (stereo not shown)
Human μ-opiate receptor
  Ki: 7.5 nM

## CN(C)C1(c2ccccc2)CCC(=CC(=O)NCCc2ccc(F)cc2)CC1 (stereo not shown)
Human μ-opiate receptor
  Ki: 5.7 nM

## CN(C)C1(c2cccc(F)c2)CCC(=CC(=O)NCCc2c[nH]c3ccccc23)CC1 (stereo not shown)
Human μ-opiate receptor
  Ki: 1.6 nM

## CN(C)C1(c2ccccc2)CCC(=CC(=O)Nc2ccc(F)cc2)CC1 (stereo not shown)
Human μ-opiate receptor
  Ki: 21 nM

## CN(C)C1(c2ccccc2)CCC(CC(=O)NCCCCCCc2c[nH]c3ccccc23)CC1.Cl (stereo not shown)
Human μ-opiate receptor
  ORμNal % 1 μm: 104%
ORL1 receptor
  ORL1% 1 μM: 91.00%

## CN(C)C1(c2ccccc2)CCC(=CC(=O)NCCCCc2ccccc2)CC1 (stereo not shown)
Human μ-opiate receptor
  Ki: 1.4 nM

## CC(Cc1c[nH]c2ccccc12)NC(=O)CC1CCC(c2cccc(F)c2)(N(C)C)CC1.Cl (stereo not shown)
Human μ-opiate receptor
  ORμNal % 1 μm: 99%
ORL1 receptor
  ORL1% 1 μM: 99.00%

## CN(C)C1(c2ccccc2)CCC(=CC(=O)NCc2ccc(F)cc2)CC1.Cl (stereo not shown)
mice
  TFMiv % [1 mg/kg]: 81%
Human μ-opiate receptor
  ORμNal % 1 μm: 99.00%
ORL1 receptor
  ORL1% 1 μM: 88.00%

## CN(C)C1(c2ccc(F)cc2)CCC(CC(=O)NCCc2c[nH]c3ccccc23)CC1 (stereo not shown)
Human μ-opiate receptor
  Ki: 1.2 nM

## CN(C)C1(c2ccccc2)CCC(CC(=O)NCCc2ccccc2)CC1 (stereo not shown)
Human μ-opiate receptor
  Ki: 2.6 nM

## CN(C)C1(c2ccccc2)CCC(=CC(=O)NCCCCCc2c[nH]c3ccccc23)CC1.Cl (stereo not shown)
Human μ-opiate receptor
  ORμNal % 1 μm: 100%
ORL1 receptor
  ORL1% 1 μM: 94%

## CN(C)C1(c2ccccc2)CCC(=CC(=O)NCCCCc2c[nH]c3ccccc23)CC1.Cl (stereo not shown)
Human μ-opiate receptor
  ORμNal % 1 μm: 101%
ORL1 receptor
  ORL1% 1 μM: 92%

## CN(C)C1(c2ccccc2)CCC(=CC(=O)NCCc2ccccc2)CC1.Cl (stereo not shown)
Human μ-opiate receptor
  ORμNal % 1 μm: 100.00%
ORL1 receptor
  ORL1% 1 μM: 84.00%

## CN(C)C1(c2ccccc2)CCC(CC(=O)N[C@@H](Cc2c[nH]c3ccccc23)C(=O)O)CC1 (stereo partly shown)
Human μ-opiate receptor
  ORμNal % 1 μm: 95%
  Ki: 17 nM
ORL1 receptor
  ORL1% 1 μM: 72.00%

## CN(C)C1(c2ccccc2)CCC(=CC(=O)NCc2c[nH]c3ccccc23)CC1.Cl (stereo not shown)
Human μ-opiate receptor
  ORμNal % 1 μm: 96.5%
ORL1 receptor
  ORL1% 1 μM: 85%

## CN(C)C1(c2ccccc2)CCC(=CC(=O)NCc2c[nH]c3ccccc23)CC1 (stereo not shown)
Human μ-opiate receptor
  Ki: 8.9 nM

## CN(C)C1(c2ccccc2)CCC(CC(=O)NCCc2ccccc2)CC1.Cl (stereo not shown)
mice
  TFMiv % (10 mg/kg): 93 (10 mg/kg) %
Human μ-opiate receptor
  ORμNal % 1 μm: 97%
ORL1 receptor
  ORL1% 1 μM: 91.00%

## COC(=O)[C@H](Cc1c[nH]c2ccccc12)NC(=O)CC1CCC(c2ccccc2)(N(C)C)CC1.Cl (stereo partly shown)
mice
  TFMiv % (10 mg/kg): 89 (10 mg/kg) %
Human μ-opiate receptor
  ORμNal % 1 μm: 97%
ORL1 receptor
  ORL1% 1 μM: 94%

## CC(Cc1c[nH]c2ccccc12)NC(=O)C=C1CCC(c2ccccc2)(N(C)C)CC1.Cl (single isomer, unassigned)
mice
  TFMiv % [1 mg/kg]: 69%
Human μ-opiate receptor
  ORμNal % 1 μm: 97.5%
ORL1 receptor
  ORL1% 1 μM: 98.5%

## CN(C)C1(c2ccccc2)CCC(CC(=O)NCc2ccccc2C(F)(F)F)CC1 (stereo not shown)
Human μ-opiate receptor
  ORμNal % 1 μm: 91.5%
  Ki: 5.9 nM
ORL1 receptor
  ORL1% 1 μM: 63.00%

## CN(C)C1(c2ccc(F)cc2)CCC(=CC(=O)NCCCc2ccccc2)CC1.Cl (stereo not shown)
Human μ-opiate receptor
  ORμNal % 1 μm: 93%
ORL1 receptor
  ORL1% 1 μM: 49%

## CN(C)C1(c2ccccc2)CCC(CC(=O)NCCCCCCc2c[nH]c3ccccc23)CC1 (stereo not shown)
Human μ-opiate receptor
  Ki: 9.8 nM

## CN(C)C1(c2ccccc2)CCC(=CC(=O)NCCc2ccccc2)CC1 (stereo not shown)
Human μ-opiate receptor
  Ki: 8.2 nM

## CN(C)C1(c2ccccc2)CCC(CC(=O)NCCCCc2c[nH]c3ccccc23)CC1.Cl (stereo not shown)
Human μ-opiate receptor
  ORμNal % 1 μm: 99%
ORL1 receptor
  ORL1% 1 μM: 99.00%

## 2-(Dimethylamino-4-phenylcyclohexylidene)-N-[2-(1H-indol-3-yl)ethyl]acetamide hydrochloride
Human μ-opiate receptor
  ORμNal % 1 μm: 100.5%
  Ki: 0.5 nM
ORL1 receptor
  ORL1% 1 μM: 98.00%

## CN(C)C1(c2ccccc2)CCC(=CC(=O)NCCCc2c[nH]c3ccccc23)CC1 (stereo not shown)
Human μ-opiate receptor
  Ki: 4.1 nM

## CN(C)C1(c2ccccn2)CCC(=CC(=O)NCCCc2ccccc2)CC1 (stereo not shown)
Human μ-opiate receptor
  Ki: 9.1 nM

## CN(C)C1(c2ccccc2)CCC(=CC(=O)NCCCCc2c[nH]c3ccccc23)CC1 (stereo not shown)
Human μ-opiate receptor
  Ki: 5.2 nM

## COC(=O)C(Cc1c[nH]c2ccccc12)NC(=O)C=C1CCC(c2ccccc2)(N(C)C)CC1 (stereo not shown)
Human μ-opiate receptor
  Ki: 1.2 nM

## CN(C)C1(c2ccccc2)CCC(=CC(=O)NCc2ccccc2)CC1.Cl (stereo not shown)
mice
  TFMiv % [1 mg/kg]: 93%
Human μ-opiate receptor
  ORμNal % 1 μm: 103.00%
ORL1 receptor
  ORL1% 1 μM: 85.00%

## CN(C)C1(c2ccccn2)CCC(=CC(=O)NCCc2c[nH]c3ccccc23)CC1.Cl (stereo not shown)
Human μ-opiate receptor
  ORμNal % 1 μm: 106%
ORL1 receptor
  ORL1% 1 μM: 92%

## COC(=O)[C@H](Cc1c[nH]c2ccccc12)NC(=O)C=C1CCC(c2ccccc2)(N(C)C)CC1 (stereo partly shown)
Human μ-opiate receptor
  ORμNal % 1 μm: 101.00%
  Ki: 1.4 nM
ORL1 receptor
  ORL1% 1 μM: 94.00%

## CN(C)C1(c2ccc(F)cc2)CCC(CC(=O)NCCc2c[nH]c3ccccc23)CC1.Cl (stereo not shown)
Human μ-opiate receptor
  ORμNal % 1 μm: 106%
ORL1 receptor
  ORL1% 1 μM: 89.00%

## CN(C)C1(c2ccccc2)CCC(=CC(=O)Nc2ccc(F)cc2)CC1.Cl (stereo not shown)
mice
  TFMiv % (10 mg/kg): 100 (10 mg/kg) %
ORL1 receptor
  ORL1% 1 μM: 37.00%

## CN(C)C1(c2ccccc2)CCC(=CC(=O)NCCCCCc2c[nH]c3ccccc23)CC1 (stereo not shown)
Human μ-opiate receptor
  Ki: 8 nM

## CN(C)C1(c2ccccc2)CCC(=CC(=O)NCCCCc2ccccc2)CC1.Cl (stereo not shown)
mice
  TFMiv % [1 mg/kg]: 74%
Human μ-opiate receptor
  ORμNal % 1 μm: 96.00%
ORL1 receptor
  ORL1% 1 μM: 93.00%

## CN(C)C1(c2ccccc2)CCC(=CC(=O)NCCCCCCc2c[nH]c3ccccc23)CC1 (stereo not shown)
Human μ-opiate receptor
  Ki: 37 nM

## CN(C)C1(c2ccc(F)cc2)CCC(=CC(=O)NCCc2c[nH]c3ccccc23)CC1 (stereo not shown)
Human μ-opiate receptor
  Ki: 5.2 nM

## CN(C)C1(c2ccccc2)CCC(CC(=O)NCc2c[nH]c3ccccc23)CC1.Cl (stereo not shown)
Human μ-opiate receptor
  ORμNal % 1 μm: 93.5%
ORL1 receptor
  ORL1% 1 μM: 66.00%

## CN(C)C1(c2ccccc2)CCC(=CC(=O)NCc2ccc(F)cc2)CC1 (stereo not shown)
Human μ-opiate receptor
  Ki: 4.3 nM

## CN(C)C1(c2ccccn2)CCC(=CC(=O)NCCc2c[nH]c3ccccc23)CC1 (stereo not shown)
Human μ-opiate receptor
  Ki: 2.7 nM

## CN(C)C1(c2ccccc2)CCC(=CC(=O)NCc2ccccc2)CC1 (stereo not shown)
Human μ-opiate receptor
  Ki: 1.1 nM

## CN(C)C1(c2ccccc2)CCC(CC(=O)NCCCCCc2c[nH]c3ccccc23)CC1.Cl (stereo not shown)
Human μ-opiate receptor
  ORμNal % 1 μm: 104%
ORL1 receptor
  ORL1% 1 μM: 98.00%

## CN(C)C1(c2cccc(F)c2)CCC(=CC(=O)NCCCc2ccccc2)CC1 (stereo not shown)
Human μ-opiate receptor
  Ki: 1.2 nM

## CC(Cc1c[nH]c2ccccc12)NC(=O)C=C1CCC(c2ccccc2)(N(C)C)CC1 (single isomer, unassigned)
Human μ-opiate receptor
  Ki: 1.4 nM

## CN(C)C1(c2ccccc2)CCC(CC(=O)NCCCc2c[nH]c3ccccc23)CC1.Cl (stereo not shown)
Human μ-opiate receptor
  ORμNal % 1 μm: 97%
ORL1 receptor
  ORL1% 1 μM: 88.00%
